In PubChem BioAssay AID1022 (Emory University Molecular Libraries Screening Center, 2008) one finds inhibition data, which are given here for eleven compounds.

Sequences of proteins named here, by UniProt entry; tags and fusion partners are left off.
UniProt Q07820, whole entry: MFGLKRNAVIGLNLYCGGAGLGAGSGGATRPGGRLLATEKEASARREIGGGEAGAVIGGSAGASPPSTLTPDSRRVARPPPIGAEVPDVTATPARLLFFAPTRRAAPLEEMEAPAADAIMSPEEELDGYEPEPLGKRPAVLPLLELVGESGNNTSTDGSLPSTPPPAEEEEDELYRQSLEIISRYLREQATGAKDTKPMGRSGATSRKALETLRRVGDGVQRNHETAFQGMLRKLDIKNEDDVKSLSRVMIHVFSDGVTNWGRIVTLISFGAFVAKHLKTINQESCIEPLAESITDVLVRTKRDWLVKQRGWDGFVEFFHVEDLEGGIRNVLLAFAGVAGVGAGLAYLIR

The entries are a selection whose mix differs from that of the whole data set. Some tests of the compounds listed are not included; inactive here does not mean inactive elsewhere. Activity calls are given as the source filed them.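 The calls were made as follows: active = compounds that cut the protein-peptide binding signal by more than 50% relative to plate controls in a single-dose test; inactive = the rest.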

The target in this assay is Induced myeloid leukemia cell differentiation protein Mcl-1 (Homo sapiens) (UniProt Q07820). Put plainly: Mcl-1/Noxa binding inhibitors, primary screen, biochemical, TR-FRET, 1536-well (AID 1022).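 Also: His-tagged Mcl-1 with rhodamine Noxa BH3 peptide and terbium anti-His antibody; 0% = Mcl-1 plus Noxa peptide wells and 100% = peptide-only wells.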 Conditions: TR-FRET Mcl-1/Noxa peptide binding, 2 h; at 21.7 µM; stronger effect = higher value. (In general: In TR-FRET formats the signal depends on donor and acceptor labels being close together.)
By inhibition is commonly meant the drop in the measured response relative to a control, in per cent. As for `COc1cccc(C(=O)NCC2(N3CCCCC3)CCCCC2)c1`, the inhibition was inactive: -0.5%.

Turning to `O=C(OC1CN2CCC1CC2)C(CO)(c1ccccc1)c1ccccc1` (stereo unspecified), the inhibition was inactive: 1.3%.

In the case of `COc1ccc(Br)c(C(=O)NCC2(N3CCCCC3)CCCCC2)c1`, the inhibition is inactive: -9.54%.

For the compound `CN(C)c1cccc(C(=O)NCC2(N(C)C)CCCCC2)c1`, the inhibition is inactive: 3.59%.

As for `O=C(NCC1(N2CCCCC2)CCCCC1)c1cc([N+](=O)[O-])ccc1Cl`, the inhibition is inactive: -9.14%.

Turning to `CC(C)N1C(=O)CC2(CCN(CCOC(=O)C(O)(c3ccccc3)c3ccccc3)CC2)C1=O`, the inhibition is inactive: -10.3%.

On to `CCN(CC)CC(C)C(C)OC(=O)C(O)(c1ccccc1)c1ccccc1` (stereo unspecified), for which the inhibition is inactive: -4.45%.

As to `CN(C)C1CCCC1OC(=O)C(O)(c1ccccc1)c1ccccc1` (stereo unspecified), the inhibition is inactive: 6.85%.

In the case of `Cc1ccccc1C(=O)NCC1(N2CCCCC2)CCCCC1`, the inhibition was inactive: -33.2%.

Take `C=CCN1CCN(CCOC(=O)C(O)(c2ccccc2)c2ccccc2)CC1`: the inhibition is inactive: 30.5%.

On to `CCN1CCCC(OC(=O)C2(O)c3ccccc3C=Cc3ccccc32)C1` (stereo unspecified), for which the inhibition is inactive: 3.94%.
